Measurements as given in patent US7732451B2, “Naphthalene-containing melanocortin receptor-specific small molecule” (Palatin Technologies, Inc., priority 2002, dated 2010).

Amino acid sequences for entries named in this document (tags omitted).
UniProt P32245, whole entry: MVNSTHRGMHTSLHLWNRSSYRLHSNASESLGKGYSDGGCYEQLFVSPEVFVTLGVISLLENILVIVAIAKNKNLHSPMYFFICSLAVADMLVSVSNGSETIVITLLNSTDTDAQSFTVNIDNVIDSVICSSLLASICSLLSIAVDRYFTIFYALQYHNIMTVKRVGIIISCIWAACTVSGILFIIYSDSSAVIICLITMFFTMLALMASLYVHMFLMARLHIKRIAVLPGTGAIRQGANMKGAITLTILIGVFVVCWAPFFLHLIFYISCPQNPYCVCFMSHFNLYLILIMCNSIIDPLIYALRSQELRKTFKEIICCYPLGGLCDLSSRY
UniProt Q01727, whole entry: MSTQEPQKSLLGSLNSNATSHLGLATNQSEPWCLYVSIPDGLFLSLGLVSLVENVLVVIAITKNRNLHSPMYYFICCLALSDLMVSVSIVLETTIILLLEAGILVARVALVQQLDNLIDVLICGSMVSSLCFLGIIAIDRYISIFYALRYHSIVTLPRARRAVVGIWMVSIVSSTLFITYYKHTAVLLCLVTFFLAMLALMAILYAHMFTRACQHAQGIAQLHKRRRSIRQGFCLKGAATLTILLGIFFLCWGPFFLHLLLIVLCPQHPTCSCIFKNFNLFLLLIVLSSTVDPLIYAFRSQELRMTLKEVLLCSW
UniProt P33032, whole entry: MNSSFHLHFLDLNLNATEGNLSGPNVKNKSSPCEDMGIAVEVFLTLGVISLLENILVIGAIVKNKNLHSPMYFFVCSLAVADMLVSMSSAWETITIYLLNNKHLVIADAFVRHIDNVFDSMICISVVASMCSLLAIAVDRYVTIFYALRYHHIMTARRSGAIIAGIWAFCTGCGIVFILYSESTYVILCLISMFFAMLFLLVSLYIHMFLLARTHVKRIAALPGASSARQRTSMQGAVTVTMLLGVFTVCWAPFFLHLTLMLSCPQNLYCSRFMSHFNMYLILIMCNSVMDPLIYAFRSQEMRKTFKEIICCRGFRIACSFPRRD

Assays:
[1] = target: MC4-R (HEK-293 cells expressing MC4-R) (Homo sapiens, UniProt P32245); experiment: cAMP assay for agonist/antagonist status; details: antagonism = inhibition of α-MSH-induced cAMP
[2] = target: MC1-R (B-16 mouse melanoma cells) (Mus musculus, UniProt Q01727); experiment: cAMP assay for agonist/antagonist status; details: antagonism = inhibition of α-MSH-induced cAMP
[3] = target: MC5-R (HEK-293 cells expressing MC5-R) (Homo sapiens, UniProt P33032); experiment: cAMP assay for agonist/antagonist status; details: antagonism = inhibition of α-MSH-induced cAMP
[4] = penile erection (PE) studies in male rats; details: IV, 1 μg/Kg, 30 minutes observation, stated below baseline

| agonist/antagonist status as to MC4-R [1] | agonist/antagonist status as to MC1-R [2] | agonist/antagonist status as to MC5-R [3] | SMILES | mean PE [4] |
| --- | --- | --- | --- | --- |
| antagonist | inactive | antagonist | N=C(N)NCCC[C@H]1C(=O)N2C(CC[C@@H]2COc2ccc3ccccc3c2)N1C(=O)[C@@H](Cc1ccc(Cl)cc1Cl)NC(=O)[C@@H]1Cc2ccccc2CN1 (stereo partly shown) | 0.125 |
| antagonist | agonist | agonist | N=C(N)NCCC[C@H]1C(=O)N2C(CC[C@@H]2COc2ccc3ccccc3c2)N1C(=O)[C@@H](Cc1ccc(Cl)cc1Cl)NC(=O)[C@@H]1CC[C@H](c2ccccc2)N1 (stereo partly shown) |  |
